From ChEMBL document CHEMBL1800007, “Synthesis, activity, and structural analysis of novel α-hydroxytropolone inhibitors of human immunodeficiency virus reverse transcriptase-associated ribonuclease H” (J Med Chem, 2011)
Active and inactive are the calls of the source. No cut-off for these calls is given here.

What follows are compounds tested against Human immunodeficiency virus type 1 reverse transcriptase (Human immunodeficiency virus 1) (UniProt Q72547). Settings: HXB2, at 20 µM.

Structure (SMILES) | inhibition
Cc1cc(O)c(=O)c(O)c2c1C[C@@H](C(C)NCc1ccccc1)CC2 (mixture of isomers) | inactive
Cc1cc(O)c(=O)c(O)c2c1C[C@@H](C(C)O)CC2 (mixture of isomers) | inactive
Cc1cc(O)c(=O)c(O)c2c1C[C@@H](C(C)(O)C[S+]([O-])c1ccccc1)CC2 (mixture of isomers) | inactive
Cc1cc(O)c(=O)c(O)c2c1C[C@@H](C(C)(O)CS(=O)(=O)c1ccccc1)CC2 (mixture of isomers) | inactive
Cc1cc(O)c(=O)c(O)c2c1C[C@@H](C(C)(O)CN1CCCCC1)CC2 (mixture of isomers) | inactive
Cc1cc(O)c(=O)c(O)c2c1C[C@@H](C(C)(O)CNc1ccccc1)CC2 (mixture of isomers) | inactive
Cc1cc(O)c(=O)c(O)c2c1C[C@@H](C(C)(O)CNCc1ccccc1F)CC2 (mixture of isomers) | inactive
CCS(=O)(=O)CC(C)(O)[C@H]1CCc2c(c(C)cc(O)c(=O)c2O)C1 (mixture of isomers) | inactive
CCSCC(C)(O)[C@H]1CCc2c(c(C)cc(O)c(=O)c2O)C1 (mixture of isomers) | inactive
Cc1cc(O)c(=O)c(O)c2c1C[C@@H](C(C)(O)CSCc1ccccc1)CC2 (mixture of isomers) | inactive
Cc1cc(O)c(=O)c(O)c2c1C[C@@H](C(C)(O)CSc1ccccc1)CC2 (mixture of isomers) | inactive
